Data: PubChem BioAssay AID651548 (Broad Institute, 2012)
This is a selection; strong and weak results do not stand in their true shares. The source made the active and inactive calls.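 How the source made its calls: active means mean inhibition of replicates at least 50% and every single replicate also reaching 50%; inconclusive means mean inhibition at least 50% but some replicate falls below 50%; inactive means mean inhibition under 50%.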

By UniProt entry, the sequences of proteins in these tests, tags left out.
UniProt Q15910, whole entry, looked up: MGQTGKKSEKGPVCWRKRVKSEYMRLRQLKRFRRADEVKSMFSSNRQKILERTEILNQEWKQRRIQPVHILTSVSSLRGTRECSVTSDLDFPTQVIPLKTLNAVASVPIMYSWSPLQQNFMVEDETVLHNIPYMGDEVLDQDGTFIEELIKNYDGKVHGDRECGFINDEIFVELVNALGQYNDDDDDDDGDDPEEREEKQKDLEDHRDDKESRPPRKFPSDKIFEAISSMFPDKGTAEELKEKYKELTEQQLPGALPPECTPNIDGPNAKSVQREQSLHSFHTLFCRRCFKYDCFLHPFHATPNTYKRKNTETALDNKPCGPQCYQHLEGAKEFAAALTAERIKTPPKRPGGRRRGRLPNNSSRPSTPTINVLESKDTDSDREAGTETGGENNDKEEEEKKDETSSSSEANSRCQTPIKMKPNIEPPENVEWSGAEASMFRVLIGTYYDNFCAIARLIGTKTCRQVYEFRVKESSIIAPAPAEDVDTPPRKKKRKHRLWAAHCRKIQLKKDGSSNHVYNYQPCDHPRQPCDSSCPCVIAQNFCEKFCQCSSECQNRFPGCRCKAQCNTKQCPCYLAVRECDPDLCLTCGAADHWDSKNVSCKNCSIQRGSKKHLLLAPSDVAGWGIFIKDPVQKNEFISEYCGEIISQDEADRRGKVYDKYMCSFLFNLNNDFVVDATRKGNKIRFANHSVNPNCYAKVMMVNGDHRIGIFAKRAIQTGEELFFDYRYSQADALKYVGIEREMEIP

Target: Histone-lysine N-methyltransferase EZH2 (Homo sapiens) (UniProt Q15910)
Experiment: EZH2/PRC2 methyltransferase inhibitors, primary screen, biochemical, DELFIA time-resolved fluorescence, single point (AID 651548);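 further: dimethyl H3K27 on biotinylated H3 21-44 peptide detected by antibody; plate controls were median neutral control wells for no effect and median positive control wells for full effect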
Conditions: PRC2 H3K27 methylation, DELFIA TRF, 1 h; at 12.5 µM; hits give high values

Compound	inhibition
COc1ccc(CN2/C(=N\P(=O)(Oc3ccccc3)Oc3ccccc3)Cc3ccccc3C2C2CC2)cc1 (centres undefined)	inactive: 38%
COc1ccc(CN2/C(=N/P(=O)(Oc3ccccc3)Oc3ccccc3)CC(C)=CC2C)cc1 (centres undefined)	active: 63.3%
C=CC1C=C(C)C/C(=N\P(=O)(Oc2ccccc2)Oc2ccccc2)N1Cc1ccc(OC)cc1 (centres undefined)	active: 68.7%
CN(C(=O)Cc1ccc(Cl)c(Cl)c1)[C@H]1CCCC[C@@H]1N1CCCC1	inactive: -13.4%
